The source of these data is ChEMBL document CHEMBL1149193, “Selective optimization of side activities: another way for drug discovery” (J Med Chem, 2004).

Amino acid sequences for entries named in this document (tags omitted).
UniProt P35367, whole entry: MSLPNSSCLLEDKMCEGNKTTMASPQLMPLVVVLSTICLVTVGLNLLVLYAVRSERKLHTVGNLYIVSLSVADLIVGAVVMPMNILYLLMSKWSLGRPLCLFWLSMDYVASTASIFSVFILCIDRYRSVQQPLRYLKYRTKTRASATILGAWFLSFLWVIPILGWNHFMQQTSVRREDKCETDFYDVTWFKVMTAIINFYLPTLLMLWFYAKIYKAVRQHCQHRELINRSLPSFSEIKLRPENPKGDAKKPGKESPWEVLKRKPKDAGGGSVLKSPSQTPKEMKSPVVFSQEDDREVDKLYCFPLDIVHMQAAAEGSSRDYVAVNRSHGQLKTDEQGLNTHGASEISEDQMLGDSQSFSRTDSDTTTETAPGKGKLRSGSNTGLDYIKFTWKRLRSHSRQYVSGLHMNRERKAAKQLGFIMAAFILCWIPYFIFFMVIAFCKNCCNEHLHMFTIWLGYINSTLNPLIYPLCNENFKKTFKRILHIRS

SMILES strings stand for the structures. pKi: −log10 of the molar value.

For the test, the target named is Histamine H1 receptor (Homo sapiens, UniProt P35367).

One may read the pKi as the negative decadic logarithm of the Ki, by convention in mol/L. Lower therefore signals a large Ki.

`CN(C)CCOC1=Cc2ccccc2Sc2ccc(Cl)cc21` [ZOTEPINE] had a pKi of 8.47.
